Measured values from ChEMBL document CHEMBL1155439, “Transient receptor potential ankyrin 1 (TRPA1) channel as emerging target for novel analgesics and anti-inflammatory agents” (J Med Chem, 2010).

Columns and labels:
[1] = molecular target: T1, Transient receptor potential cation channel subfamily A member 1 (Homo sapiens, UniProt O75762); experiment: Antagonist activity at human TRPA1 channel assessed as inhibition of cynnamaldehyde-induced response
[2] = molecular target: T1, Transient receptor potential cation channel subfamily A member 1; experiment: Antagonist activity at human TRPA1 channel assessed as inhibition of allyl isothiocyanate-induced intracellular calcium influx
[3] = molecular target: T1, Transient receptor potential cation channel subfamily A member 1; experiment: Antagonist activity at human TRPA1 channel assessed as inhibition of trinitrophenol-induced response
[4] = molecular target: T1, Transient receptor potential cation channel subfamily A member 1; experiment: Antagonist activity at human TRPA1 channel assessed as inhibition of URB597-induced intracellular calcium influx

In the case of `Cc1ccc(C(=O)NC(Sc2ccc([N+](=O)[O-])cc2)C(Cl)(Cl)Cl)cc1` (centres undefined), the IC50 [1] is reported as 2500 nM, the IC50 [2] is reported as 2000 nM and the IC50 [3] is reported as 360 nM. The IC50 [4] was 850 nM.
